From PMC11203266, “Continuous evolution of compact protein degradation tags regulated by selective molecular glues” (Science (New York, N.Y.), 2024)

Amino acid sequences for entries named in this document (tags omitted).
UniProt Q96SW2, whole entry: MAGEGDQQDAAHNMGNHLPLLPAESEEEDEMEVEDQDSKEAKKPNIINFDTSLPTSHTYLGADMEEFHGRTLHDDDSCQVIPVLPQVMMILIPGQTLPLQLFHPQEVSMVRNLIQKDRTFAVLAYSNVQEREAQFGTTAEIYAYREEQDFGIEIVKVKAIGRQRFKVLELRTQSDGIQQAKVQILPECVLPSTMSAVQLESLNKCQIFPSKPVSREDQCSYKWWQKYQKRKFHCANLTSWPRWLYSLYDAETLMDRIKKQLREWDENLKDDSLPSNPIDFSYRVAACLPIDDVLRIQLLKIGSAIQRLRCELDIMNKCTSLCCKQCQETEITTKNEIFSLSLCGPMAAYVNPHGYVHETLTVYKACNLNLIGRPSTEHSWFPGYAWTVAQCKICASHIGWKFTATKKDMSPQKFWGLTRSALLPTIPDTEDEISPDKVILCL
UniProt Q16531, whole entry partner: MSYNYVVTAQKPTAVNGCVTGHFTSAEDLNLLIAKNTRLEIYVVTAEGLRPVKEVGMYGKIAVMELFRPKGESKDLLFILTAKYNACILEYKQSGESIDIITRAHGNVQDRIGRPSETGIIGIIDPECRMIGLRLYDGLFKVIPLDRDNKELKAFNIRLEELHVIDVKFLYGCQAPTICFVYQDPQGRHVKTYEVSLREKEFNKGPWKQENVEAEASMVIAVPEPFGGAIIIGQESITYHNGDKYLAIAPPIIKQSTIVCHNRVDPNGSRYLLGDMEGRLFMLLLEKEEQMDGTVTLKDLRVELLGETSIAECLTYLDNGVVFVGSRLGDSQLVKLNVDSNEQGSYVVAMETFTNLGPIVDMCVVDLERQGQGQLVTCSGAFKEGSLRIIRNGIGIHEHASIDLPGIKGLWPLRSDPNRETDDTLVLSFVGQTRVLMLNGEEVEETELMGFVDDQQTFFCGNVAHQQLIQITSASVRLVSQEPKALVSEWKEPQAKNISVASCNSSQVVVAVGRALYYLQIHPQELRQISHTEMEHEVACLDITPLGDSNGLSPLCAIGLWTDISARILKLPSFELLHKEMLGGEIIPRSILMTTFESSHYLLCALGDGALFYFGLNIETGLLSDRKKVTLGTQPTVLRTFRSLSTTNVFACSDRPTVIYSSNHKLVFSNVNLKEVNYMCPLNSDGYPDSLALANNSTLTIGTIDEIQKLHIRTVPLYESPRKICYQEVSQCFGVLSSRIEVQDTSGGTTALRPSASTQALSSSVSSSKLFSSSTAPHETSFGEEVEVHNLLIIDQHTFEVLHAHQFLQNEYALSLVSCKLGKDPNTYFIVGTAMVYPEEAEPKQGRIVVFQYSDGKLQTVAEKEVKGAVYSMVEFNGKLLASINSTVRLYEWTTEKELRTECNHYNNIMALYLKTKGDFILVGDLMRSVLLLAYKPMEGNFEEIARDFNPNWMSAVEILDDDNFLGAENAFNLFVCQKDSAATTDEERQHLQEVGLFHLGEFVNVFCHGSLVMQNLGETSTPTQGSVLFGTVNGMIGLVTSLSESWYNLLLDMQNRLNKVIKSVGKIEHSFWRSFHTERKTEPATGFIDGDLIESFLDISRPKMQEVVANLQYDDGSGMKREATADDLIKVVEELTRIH

Biological target: DDB1•CRBN (Homo sapiens, UniProt Q96SW2)
Assay: Fluorescence polarization, thalidomide-Cy5 binding
Conditions: direct binding, saturation one site model

Question: Which Kd does the source give for `C[N+]1=C(C=CC=CC=C2N(CCCCCC(=O)NCCCCNC(=O)COc3cccc4c3C(=O)N(C3CCC(=O)NC3=O)C4=O)c3ccccc3C2(C)C)C(C)(C)c2ccccc21` (stereo not shown) here?
Answer: The Kd was 431 nM.
